Experimental findings from PubChem BioAssay AID1246 (Columbia University Molecular Screening Center, 2008) are described below.

Molecules are shown by their SMILES. The list shows a part of the results, in another mix than the full data. The source made the active and inactive calls.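 How the source made its calls: active means inhibition above the batch mean plus 3 SD, and confirmed as a hit on visual image review (cut at about 43% in these data); inconclusive means passes the inhibition cutoff but fails visual image review; inactive means the rest.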

A short description of the experiment: E-selectin induction blockers in HUVEC – imaging, immunofluorescence, high content, primary screen (AID 1246).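 Further: 0% = TNF-stimulated DMSO wells and 100% = unstimulated control wells.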 As to conditions: HUVEC TNFa-induced E-selectin immunofluorescence, at 2 µM, hits give high values.
Regarding `CC(C)=N/N=C(\N)N[N+](=O)[O-]`, the inhibition is inactive: 13.1%.

Turning to `CC1CCN(C(=O)Oc2c(Cl)cc(Cl)c3cccnc23)CC1`, the inhibition is inactive: -2.37%.

As for `CC(=O)N1C2C3N(C(C)=O)C1C1N(C(C)=O)C(C(N1C(C)=O)N3C(C)=O)N2C(C)=O`, the inhibition was inactive: 12.8%.

As to `O=[N+]([O-])c1cccc2n[nH]nc12`, the inhibition was inactive: 9.91%.

On to `COc1ccc(C2=NCC(CBr)S2)cc1` (configuration not stated), for which the inhibition is inactive: -18.6%.

For the compound `Cc1cc(SC(NC(=O)c2ccc(F)cc2)C(Cl)(Cl)Cl)ncn1` (configuration not stated), the inhibition is inactive: 11.7%.

Regarding `CCOP(=O)(Nc1ccccc1)OCC`, the inhibition is inactive: 6.69%.

As to `CC(C)CC(=O)NC(Sc1ccc(Cl)cc1)C(Cl)(Cl)Cl` (configuration not stated), the inhibition is inactive: 45.4%.

In the case of `Oc1ccccc1CNc1ccccn1`, the inhibition is inactive: -40.3%.

Regarding `O=C(NC(Sc1ccncn1)C(Cl)(Cl)Cl)c1ccccc1` (configuration not stated), the inhibition was inactive: -5.94%.

In the case of `Cc1c2non([O-])c-2c(C)[n+](=O)[n+]1[O-]`, the inhibition is inactive: -10.7%.

`CN1CCCC(OC(=O)C(c2ccccc2)c2ccccc2)C1` (configuration not stated): the inhibition was inactive: -4.35%.

`Cc1ccc(N/C(=N/P(=O)(N2CCOCC2)N2CCOCC2)N2CCOCC2)cc1`: the inhibition was inactive: -22.8%.

Consider `CC(=O)Nc1ccc(Oc2c([N+](=O)[O-])cc([N+](=O)[O-])cc2[N+](=O)[O-])cc1`, for which the inhibition is inactive: -35.4%.

Consider `COC(=O)c1cc2c(s1)N=C(c1ccccc1)N(C)P2(=O)N1CCOCC1` (configuration not stated), for which the inhibition is inactive: -32.6%.

For the compound `CC(=O)NC(SC(=S)N(CC(C)C)CC(C)C)C(Cl)(Cl)Cl` (configuration not stated), the inhibition is inactive: 7.99%.

For `CCC(=O)N1C2C3N(C(=O)CC)C1C1N(C(=O)CC)C(C(N1C(=O)CC)N3C(=O)CC)N2C(=O)CC`, the inhibition was inactive: 26%.

Consider `CCOC(=O)NC(Sc1ccccc1)C(Cl)(Cl)Cl` (configuration not stated), for which the inhibition is inactive: 7.74%.

Take `C(Cc1nn[nH]n1)Cc1nn[nH]n1`: the inhibition is inactive: -12.5%.

Take `CC(=O)NC(SC(=S)N(C)C)C(Cl)(Cl)Cl` (configuration not stated): the inhibition was inactive: 3.99%.

`c1nnnn1CCn1cnnn1`: the inhibition was inactive: -12.7%.

`O=P(Nc1nccs1)(c1ccccc1)c1ccccc1`: the inhibition is inactive: -5.37%.

Regarding `CC1(CBr)Cn2c(nc3ccccc3c2=O)S1` (configuration not stated), the inhibition is inactive: -2.02%.

Turning to `Clc1n[nH]nc1-c1nn[nH][15n]1`, the inhibition was inactive: -1.95%.

Turning to `O=P1(Nc2ccccn2)COc2ccccc2OC1`, the inhibition is inactive: 10.4%.

Consider `Cc1ccc(OCC(=O)OC2CN3CCC2CC3)cc1` (configuration not stated), for which the inhibition was inactive: 3.04%.

As for `Cc1nn(-c2ccccc2)c2c1P(=O)(N1CCOCC1)N(C)C(c1ccccc1)=N2` (configuration not stated), the inhibition is inactive: -11.6%.

Turning to `CC1CCC(C(C)C)C(OP(=O)(Nc2ccccn2)c2ccccc2)C1` (configuration not stated), the inhibition was inactive: -25.6%.

For `O=[N+]([O-])c1ccc2c(c1)nnn2O`, the inhibition is inactive: -36.5%.

Consider `CCOP1(=S)c2c(C)nn(CCC#N)c2N=C(c2ccc(F)cc2)N1C` (configuration not stated), for which the inhibition is inactive: 16.3%.

For the compound `CCOP1(=S)c2c(C)nn(CCC#N)c2N=C(c2ccccc2F)N1C` (configuration not stated), the inhibition was inactive: 9.38%.

With `O=P(Nc1nccs1)(c1ccccc1)c1nc2ccccc2s1` (configuration not stated), the inhibition is inactive: -31.9%.

`COc1cc(C2NCCC3(OCCO3)C2(C)C)cc(OC)c1OC` (configuration not stated): the inhibition is inactive: 4.96%.

With `CCOP(=O)(Nc1cccc2ccccc12)OCC`, the inhibition is inactive: 7.72%.

Consider `Cc1cccc(OCC(=O)OC2CN3CCC2CC3)c1` (configuration not stated), for which the inhibition is inactive: 3.93%.

Regarding `O=C(OC1CN2CCC1CC2)C12CC3CC(CC(C3)C1)C2` (configuration not stated), the inhibition was inactive: 0.09%.

As for `CCN(CC)C(=S)SC(NC=O)C(Cl)(Cl)Cl` (configuration not stated), the inhibition is inactive: 25.2%.

Consider `ClCCSc1nnc(-c2cccnc2)o1`, for which the inhibition is inactive: -14.7%.

For `Cc1cc(SC(NC(=O)c2ccccc2)C(Cl)(Cl)Cl)nc(C(C)C)n1` (configuration not stated), the inhibition is inactive: -18.3%.

`CCC(C)N(CC(C)C)C(=S)SC(NC(C)=O)C(Cl)(Cl)Cl` (configuration not stated): the inhibition is inactive: -10.8%.

For `O=C(COc1ccccc1)OC1CN2CCC1CC2` (configuration not stated), the inhibition was inactive: -1.84%.

Regarding `COP1(=S)c2c(C)nn(CCC#N)c2N=C(c2ccc(F)cc2)N1C` (configuration not stated), the inhibition is inactive: -10%.

As usually defined, the inhibition is the drop in the measured response relative to a control, in per cent.
